Reference: patent US20030215462A1, “Use of UGT inhibitors to increase bioavailability” (priority 2001, published 2003)

Molecular target: T1, UGT enzymes of human liver microsomes (Homo sapiens, UniProt P16662)
T1 construct: residual metabolism (percentage of control), zidovudine glucuronidation; other: liver lot 062101; residual metabolism (percentage of control), zidovudine glucuronidation; residual metabolism (percentage of control)
T1 sequence (P16662 1-529): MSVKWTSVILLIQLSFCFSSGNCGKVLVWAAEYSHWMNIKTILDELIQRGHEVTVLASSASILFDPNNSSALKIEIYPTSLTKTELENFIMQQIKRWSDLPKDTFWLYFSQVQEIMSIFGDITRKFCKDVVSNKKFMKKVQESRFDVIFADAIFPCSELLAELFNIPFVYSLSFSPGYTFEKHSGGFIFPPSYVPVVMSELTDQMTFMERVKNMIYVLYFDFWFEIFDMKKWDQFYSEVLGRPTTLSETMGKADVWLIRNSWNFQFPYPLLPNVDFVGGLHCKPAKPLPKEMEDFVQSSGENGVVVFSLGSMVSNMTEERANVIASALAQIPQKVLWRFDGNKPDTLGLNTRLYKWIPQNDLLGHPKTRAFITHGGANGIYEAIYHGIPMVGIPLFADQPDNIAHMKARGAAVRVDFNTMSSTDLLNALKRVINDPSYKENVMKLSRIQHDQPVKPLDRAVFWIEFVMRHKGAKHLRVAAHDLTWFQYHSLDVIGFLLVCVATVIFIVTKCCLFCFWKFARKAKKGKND
Test: Inhibition of zidovudine glucuronidation in human liver microsomes
Format: biochemical
Conditions: liver lot 062101

Compound: O=C(O)Cc1ccccc1Nc1c(Cl)cccc1Cl [Diclofenac, reference compound]
- residual metabolism (percentage of control), zidovudine glucuronidation (inhibitor 50 μM): 74 (1) %
- residual metabolism (percentage of control), zidovudine glucuronidation (inhibitor 100 μM): 64 (2) %
- residual metabolism (percentage of control), zidovudine glucuronidation (inhibitor 200 μM): 52 (2) %
- residual metabolism (percentage of control), zidovudine glucuronidation (inhibitor 500 μM): 21 (1); 21 (1) %
